The record followed here is paper PMC13642346.

The chains are these.
B1: FLAG-GPR84-eYFP, wild type [human] / β-arrestin-1 fused to nano-luciferase [not stated] (parent)
chain 1: MGDKGTRVFKKASPNGKLTVYLGKRDFVDHIDLVDPVDGVVLVDPEYLKERRVYVTLTCAFRYGREDLDVLGLTFRKDLFVANVQSFPPAPEDKKPLTRLQERLIKKLGEHAYPFTFEIPPNLPCSVTLQPGPEDTGKACGVDYEVKAFCAENLEEKIHKRNSVRLVIRKVQYAPERPGPQPTAETTRQFLMSDKPLHLEASLDKEIYYHGEPISVNVHVTNNTNKTVKKIKISVRQYADICLFNTAQYKCPVAMEEADDTVAPSSTFCKVYTLTPFLANNREKRGLALDGKLKHEDTNLASSTLLREGANREILGIIVSYKVKVKLVVSRGGLLGDLASSDVAVELPFTLMHPKPKEEPPHREVPENETPVDTNLIELDTNDDDIVFEDFARQRLKGMKDDKEEEEDGTGSPQLNNR
chain 2: MWNSSDANFSCYHESVLGYRYVAVSWGVVVAVTGTVGNVLTLLALAIQPKLRTRFNLLIANLTLADLLYCTLLQPFSVDTYLHLHWRTGATFCRVFGLLLFASNSVSILTLCLIALGRYLLIAHPKLFPQVFSAKGIVLALVSTWVVGVASFAPLWPIYILVPVVCTCSFDRIRGRPYTTILMGIYFVLGLSSVGIFYCLIHRQVKRAAQALDQYKLRQASIHSNHVARTDEAMPGRFQELDSRLASGGPSEGISSEPVSAATTQTLEGDSSEVGDQINSKRAKQMAEKSPPEASAKAQPIKGARRAPDSSSEFGKVTRMCFAVFLCFALSYIPFLLLNILDARVQAPRVVHMLAANLTWLNGCINPVLYAAMNRQFRQAYGSILKRGPRSFHRLH

This assay covers variants of B1. In words: BRET β-arrestin-1 recruitment. Particulars: with β-arrestin-1 fused to nano-luciferase, read off a plot. Background: Bioluminescence resonance energy transfer reports proximity on the nanometre scale.
[1] abbreviates: agonist OX04529, highest concentration point, log[agonist (M)] = -5.
[2] abbreviates: agonist OX04539, highest concentration point, log[agonist (M)] = -5.
[3] abbreviates: agonist OX04954, highest concentration point, log[agonist (M)] = -5.

Consider chain 2 MWNSSDANFSCYHESVLGYRYVAVSWGVVVAVTGTVGNVLTLLALAIQPKLRTRFNLLIANLTLADLLYCTLLQPFSVDTYLHLHWRTGATFCRVFGLLLFASNSVSILTLCLIALGRYLLIAHPKLFPQVFSAKGIVLALVSTWVVGVASFAPLWPIYILVPVVCTCSFDRIRGRPYTTILMGIYFVLGLSSVGIFYCLIHRQVKRAAQALDQYKLRQASIHSNHVARTDEAMPGRFQELDSRLASGGPSEGISSEPVSAATTQTLEGDSSEVGDQINSKRAKQMAEKSPPEASAKAQPIKGARRAPDSSSEFGKVTRMCFAVFLCFALAYIPFLLLNILDARVQAPRVVHMLAANLTWLNGCINPVLYAAMNRQFRQAYGSILKRGPRSFHRLH [chain 2 S331A], for which the response (agonist OX04529, highest concentration point, log[agonist (M)] = -6, parent value read at the same concentration) was 23 % of OX04539; the response (agonist OX04539, highest concentration point, log[agonist (M)] = -6, parent value read at the same concentration) is 100 % of OX04539; the response (agonist OX04954, highest concentration point, log[agonist (M)] = -6, parent value read at the same concentration) was 66 % of OX04539.
For the variant chain 2 MWNSSDANFSCYHESVLGYRYVAVSWGVVVAVTGTVGNVLTLLALAIQPKLRTRFNLLIANLTLADLLYCTLLQPFSVDTYLHLHWRTGATFCRVFGLLLFASNSVSILTLCLIALGRYLLIAHPKLFPQVFSAKGIVLALVSTWVVGVASFAPLWPIYILVPVVCTCSFDRIRGRPYTTILMGIYFVLGLSSVGIFYCLIHRQVKRAAQALDQYKLRQASIHSNHVARTDEAMPGRFQELDSRLASGGPSEGISSEPVSAATTQTLEGDSSEVGDQINSKRAKQMAEKSPPEASAKAQPIKGARRAPDSSSEFGKVTRMCFAVFLCFALSYIPFLLLNILDARVQAPRVVHMLAANLTWLAGCINPVLYAAMNRQFRQAYGSILKRGPRSFHRLH [chain 2 N362A], the response is 0 % of OX04539 under setting [1], 100 % of OX04539 under setting [2] and 6 % of OX04539 under setting [3].
For chain 2 MWNSSDANFSCYHESVLGYRYVAVSWGVVVAVTGTVGNVLTLLALAIQPKLRTRFNLLIANLTLADLLYCTLLQPFSVDTYLHLHWRTGATFCRVFGLLLFASNSVSILTLCLIALGRYLLIAHPKLFPQVFSAKGIVLALVSTWVVGVASFAPLWPIYILVPVVCTCSFDRIRGRPYTTILMGIYFVLGLSSVGIFYCLIHRQVKRAAQALDQYKLRQASIHSNHVARTDEAMPGRFQELDSRLASGGPSEGISSEPVSAATTQTLEGDSSEVGDQINSKRAKQMAEKSPPEASAKAQPIKGARRAPDSSSEFGKVTRMCFAVFLCFALSFIPFLLLNILDARVQAPRVVHMLAANLTWLNGCINPVLYAAMNRQFRQAYGSILKRGPRSFHRLH [chain 2 Y332F], in that order: 8 % of OX04539, 100 % of OX04539 and 38 % of OX04539.
For chain 2 MWNSSDANFSCYHESVLGYRYVAVSWGVVVAVTGTVGNVLTLLALAIQPKLRTRFNLLIANLTLADLLYCTLLQPFSVDTYLHLHWRTGATFCRVFGLLLFASASVSILTLCLIALGRYLLIAHPKLFPQVFSAKGIVLALVSTWVVGVASFAPLWPIYILVPVVCTCSFDRIRGRPYTTILMGIYFVLGLSSVGIFYCLIHRQVKRAAQALDQYKLRQASIHSNHVARTDEAMPGRFQELDSRLASGGPSEGISSEPVSAATTQTLEGDSSEVGDQINSKRAKQMAEKSPPEASAKAQPIKGARRAPDSSSEFGKVTRMCFAVFLCFALSYIPFLLLNILDARVQAPRVVHMLAANLTWLNGCINPVLYAAMNRQFRQAYGSILKRGPRSFHRLH [chain 2 N104A], in that order: 2 % of OX04539, 100 % of OX04539 and 3 % of OX04539.
